Test results taken from patent US20080009551A1, “Methods and Compositions for Identifying Modulators of G Protein-Coupled Receptors” (Arena Pharmaceuticals, Inc., priority 2003, published 2008).

Amino acid sequences for entries named in this document (tags omitted). Chains listed by the source or under a name are the forms on record and can include a tag or linker.
UniProt P08483, with tags, fused parts or gaps: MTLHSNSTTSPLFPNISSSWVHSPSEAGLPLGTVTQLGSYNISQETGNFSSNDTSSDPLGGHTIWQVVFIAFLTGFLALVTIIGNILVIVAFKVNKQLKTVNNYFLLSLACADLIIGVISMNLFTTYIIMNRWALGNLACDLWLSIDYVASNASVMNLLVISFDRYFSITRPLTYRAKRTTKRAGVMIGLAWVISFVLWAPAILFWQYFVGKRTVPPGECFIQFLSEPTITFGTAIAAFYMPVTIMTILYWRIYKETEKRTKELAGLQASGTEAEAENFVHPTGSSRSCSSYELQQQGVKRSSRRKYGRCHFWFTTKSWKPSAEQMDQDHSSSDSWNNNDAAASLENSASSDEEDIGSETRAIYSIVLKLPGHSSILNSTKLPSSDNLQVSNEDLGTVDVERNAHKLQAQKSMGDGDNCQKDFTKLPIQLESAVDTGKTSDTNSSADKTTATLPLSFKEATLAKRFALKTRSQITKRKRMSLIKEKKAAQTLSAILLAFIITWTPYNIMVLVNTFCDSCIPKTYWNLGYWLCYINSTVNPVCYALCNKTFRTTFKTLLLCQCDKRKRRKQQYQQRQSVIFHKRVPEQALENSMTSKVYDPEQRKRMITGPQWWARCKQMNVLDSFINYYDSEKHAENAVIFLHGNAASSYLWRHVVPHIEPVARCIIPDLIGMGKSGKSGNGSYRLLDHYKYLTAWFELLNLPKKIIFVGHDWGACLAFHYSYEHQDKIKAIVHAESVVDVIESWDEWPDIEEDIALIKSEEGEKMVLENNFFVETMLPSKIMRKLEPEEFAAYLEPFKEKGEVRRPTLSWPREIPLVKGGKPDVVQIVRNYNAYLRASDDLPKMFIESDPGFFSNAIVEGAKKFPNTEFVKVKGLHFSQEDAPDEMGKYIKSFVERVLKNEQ

Biological target: Rm3-Rlu (Rattus norvegicus, UniProt P08483)
Conditions: similar treatment (1 μM, 20 h), wild-type receptor Rm3-Rlu

Structure (SMILES): CN1[C@@H]2CC[C@H]1C[C@@H](OC(=O)C(CO)c1ccccc1)C2 (stereo partly shown) [atropine]
- effect on [3H]NMS binding sites: no significant effect
